# According to paper PMC2852430 (Biochemistry, 2010):
# Chains of the proteins cited; added tags and fusions are not shown.
# UniProt P09207, whole entry: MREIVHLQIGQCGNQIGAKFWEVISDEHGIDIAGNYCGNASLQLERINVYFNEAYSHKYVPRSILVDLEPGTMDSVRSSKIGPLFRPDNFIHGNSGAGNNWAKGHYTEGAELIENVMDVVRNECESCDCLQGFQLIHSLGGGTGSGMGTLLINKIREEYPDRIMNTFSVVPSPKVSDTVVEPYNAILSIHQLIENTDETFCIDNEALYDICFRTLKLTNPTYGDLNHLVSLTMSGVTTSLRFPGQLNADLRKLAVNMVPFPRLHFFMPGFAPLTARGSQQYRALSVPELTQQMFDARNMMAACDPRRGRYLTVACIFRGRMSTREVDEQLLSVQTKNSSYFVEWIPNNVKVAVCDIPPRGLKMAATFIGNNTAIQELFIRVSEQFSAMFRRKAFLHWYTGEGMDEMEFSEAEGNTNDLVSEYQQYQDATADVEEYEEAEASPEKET
# Biological target: chicken erythrocyte tubulin (CeTb), ~95% βVI (Gallus gallus, UniProt P09207)
# Assay: biochemical
compound,measurement,value
"COC(=O)Nc1nc2ccc(C(=O)c3cccs3)cc2[nH]1 [Nocodazole, nocodazole]",IC50,87 ± 2 µM
